Data taken from patent US9163011B2, “Oxazine derivatives and their use in the treatment of disease” (NOVARTIS AG, priority 2011, dated 2015).

The chains behind the UniProt entries cited, without tags or fusion partners. Residues count along the entry.
UniProt P56817, 46-457: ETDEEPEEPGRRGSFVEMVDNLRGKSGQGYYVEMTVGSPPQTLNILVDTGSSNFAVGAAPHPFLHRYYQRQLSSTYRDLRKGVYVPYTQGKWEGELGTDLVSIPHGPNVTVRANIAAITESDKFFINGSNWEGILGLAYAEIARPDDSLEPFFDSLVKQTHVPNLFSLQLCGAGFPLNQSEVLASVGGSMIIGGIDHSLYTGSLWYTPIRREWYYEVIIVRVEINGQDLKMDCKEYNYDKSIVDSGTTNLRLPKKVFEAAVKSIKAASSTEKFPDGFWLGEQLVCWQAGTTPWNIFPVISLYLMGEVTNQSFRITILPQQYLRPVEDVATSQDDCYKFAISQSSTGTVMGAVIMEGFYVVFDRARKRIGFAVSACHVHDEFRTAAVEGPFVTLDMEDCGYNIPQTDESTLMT
UniProt Q9Y5Z0, 63-473: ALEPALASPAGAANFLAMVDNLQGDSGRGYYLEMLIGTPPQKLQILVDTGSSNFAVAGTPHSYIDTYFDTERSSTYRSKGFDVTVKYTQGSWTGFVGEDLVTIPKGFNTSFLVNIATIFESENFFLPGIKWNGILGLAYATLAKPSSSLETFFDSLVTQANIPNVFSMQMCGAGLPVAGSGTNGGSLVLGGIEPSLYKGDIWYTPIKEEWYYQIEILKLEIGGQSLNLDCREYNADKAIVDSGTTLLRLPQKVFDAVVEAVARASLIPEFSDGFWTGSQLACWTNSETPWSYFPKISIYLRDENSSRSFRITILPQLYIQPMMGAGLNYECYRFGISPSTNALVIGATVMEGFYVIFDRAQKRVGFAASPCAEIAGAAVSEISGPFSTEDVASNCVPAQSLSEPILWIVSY

Tests used:
Human BACE-1 = Human BACE-1 (Homo sapiens (Human), UniProt P56817); assay: Test 1: Inhibition of Human BACE-1; type: biochemical; conditions: recombinant BACE-1, pH 4.5, 1 hour preincubation
Method: Test 1: Inhibition of Human BACE-1
(§1) Recombinant BACE-1 (extracellular domain, expressed in baculovirus and purified using standard methods) at 0.1 to 1 nM concentrations is incubated with the test compound at various concentrations for 1 hour at room temperature in 100 mM acetate buffer, pH 4.5, containing 0.1% CHAPS. Activity was measured using a final concentration of 3 μM of the fluorescence-quenched substrate Q-C(HSO3)-Ile-Asp-Leu-Ala-Val-Leu-Asp-HN—CH2—CH2-Mca, where Q=2-nitro-5-amino benzoic acid and Mca=7-methoxy-4-coumarinyl acetic acid. Catalytic turnover was monitored in a Spectramax Gemini fluorescence plate reader (Molecular Devices) in black 96-well microplates using excitation/emission wavelength of 325 nm and 400 nm, respectively. Fluorescence increase was followed for 15 min, in 1 minute's intervals. The fluorescence/time slopes were calculated from duplicate wells and from wells without inhibitor and the IC50 values were calculated using a logistic 4-parameter model.

Human BACE-2 = Human BACE-2 (Homo sapiens (Human), UniProt Q9Y5Z0); assay: Test 2: Inhibition of Human BACE-2; type: biochemical; conditions: recombinant BACE-2, pH 4.5, 1 hour preincubation
Method: Test 2: Inhibition of Human BACE-2
as §1, with “BACE-2” for “BACE-1”

IC50 (Human BACE-1) [nM]	IC50 (Human BACE-2) [nM]	SMILES
> 10000	> 10000	COCC[C@@]1(c2nc(NC(=O)c3ncc(C#N)cc3C)ccc2F)N=C(N)OCC1(F)F [Example 5]
35		C[C@]1(c2nc(NC(=O)c3ncc(C(F)(F)F)cc3Cl)ccc2F)N=C(N)OCC1(F)F [Example 7, 3-Chloro-5-trifluoromethyl-pyridine-2-carboxylic acid [6-((R)-2-amino-5,5-difluoro-4-methyl-5,6-dihydro-4H-[1,3]oxazin-4-yl)-5-fluoro-pyridin-2-yl]-amide]
100	580	COCC[C@]1(c2nc(NC(=O)c3ncc(C#N)cc3C)ccc2F)N=C(N)OCC1(F)F [Example 4, 5-Cyano-3-methyl-pyridine-2-carboxylic acid {6-[(R)-2-amino-5,5-difluoro-4-(2-methoxy-ethyl)-5,6-dihydro-4H-[1,3]oxazin-4-yl]-5-fluoro-pyridin-2-yl}-amide]
